The target in assay [1] is muscarinic receptors (cerebral cortex). In words: Binding to muscarinic receptors, 3H-NMS displacement, cerebral cortex. The arrangement: species or system rat (male Sprague-Dawley). The following applies: 0.3 nM 3H-NMS, 30° C., 45 min, pH 7.4; read-out: IC50 receptor binding test, Cortex (C).
In another assay the target is T1, histamine-H1 receptor (Rattus norvegicus, UniProt P31390).
T1 construct: whole rat brains were used without the cerebellum; from tissue; host or cells: membranes of whole rat brain without cerebellum
Put plainly: Binding to the histamine-H1 receptor (3H-pyrilamine). As to conditions: 2 nM 3H-pyrilamine, ambient temperature, 60 min, whole rat brain without cerebellum.

By UniProt entry, the sequences of proteins in these tests, tags left out.
UniProt P31390, whole entry: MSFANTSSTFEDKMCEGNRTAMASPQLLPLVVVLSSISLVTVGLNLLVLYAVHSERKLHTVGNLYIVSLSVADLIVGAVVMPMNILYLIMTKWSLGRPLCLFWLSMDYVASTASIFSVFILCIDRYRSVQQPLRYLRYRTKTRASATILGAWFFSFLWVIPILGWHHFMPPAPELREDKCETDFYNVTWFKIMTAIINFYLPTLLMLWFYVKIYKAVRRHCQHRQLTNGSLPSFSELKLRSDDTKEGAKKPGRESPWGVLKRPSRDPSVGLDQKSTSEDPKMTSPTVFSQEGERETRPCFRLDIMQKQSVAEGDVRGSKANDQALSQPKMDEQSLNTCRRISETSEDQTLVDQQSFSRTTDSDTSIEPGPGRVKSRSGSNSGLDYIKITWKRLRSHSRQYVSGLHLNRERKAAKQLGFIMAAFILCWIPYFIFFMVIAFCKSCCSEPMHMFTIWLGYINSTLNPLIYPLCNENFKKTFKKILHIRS

On to `CCN(CC)CC1CCCCN1CC(=O)N1c2ccccc2C(=O)Nc2cccnc21` (centres unmarked) [D, 11-[[2-[(diethylamino)methyl]-1-piperidinyl]acetyl]-5,11-dihydro-6H-pyrido[2,3-b][1,4]benzodiazepin-6-one, reference compound], for which the half-maximal inhibitory concentration (IC50) in assay [1] was determined as 1200 nM.

The compound `COc1ccc(CN(CCN(C)C)c2ccccn2)cc1` [Pyrilamine, reference compound] gave a half-inhibitory concentration (IC50) at histamine-H1 receptor of 7 nM.

The record behind these values is US5006522A, “Condensed diazepinones, processes for preparing them and pharmaceutical compositions containing these compounds” (Karl Thomae GmbH, priority 1988, dated 1991).
